Results on one compound are retold here after article PMC3700404 (Chemistry & biology, 2008).

Chains of the proteins cited; added tags and fusions are not shown.
UniProt P34972, whole entry: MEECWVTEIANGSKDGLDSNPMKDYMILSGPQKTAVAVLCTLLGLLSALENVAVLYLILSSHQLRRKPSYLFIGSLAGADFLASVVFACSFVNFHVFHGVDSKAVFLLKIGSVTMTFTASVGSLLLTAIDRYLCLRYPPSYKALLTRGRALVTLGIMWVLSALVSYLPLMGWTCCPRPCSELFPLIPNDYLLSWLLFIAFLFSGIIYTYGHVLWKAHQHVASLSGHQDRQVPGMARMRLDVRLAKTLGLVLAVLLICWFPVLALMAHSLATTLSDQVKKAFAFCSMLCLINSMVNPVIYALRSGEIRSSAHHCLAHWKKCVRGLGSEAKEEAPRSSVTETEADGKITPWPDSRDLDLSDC
UniProt P34972, whole entry C257S: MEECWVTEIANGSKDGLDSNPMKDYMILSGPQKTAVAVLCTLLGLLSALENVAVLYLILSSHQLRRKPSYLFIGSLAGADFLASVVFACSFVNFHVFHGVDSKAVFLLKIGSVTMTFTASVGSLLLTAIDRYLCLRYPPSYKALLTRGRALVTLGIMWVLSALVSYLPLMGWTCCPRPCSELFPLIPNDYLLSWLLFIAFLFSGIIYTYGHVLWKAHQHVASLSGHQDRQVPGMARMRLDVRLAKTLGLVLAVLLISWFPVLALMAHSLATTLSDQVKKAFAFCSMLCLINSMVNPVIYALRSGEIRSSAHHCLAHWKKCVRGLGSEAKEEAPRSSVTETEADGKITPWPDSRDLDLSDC
UniProt P34972, whole entry C257A: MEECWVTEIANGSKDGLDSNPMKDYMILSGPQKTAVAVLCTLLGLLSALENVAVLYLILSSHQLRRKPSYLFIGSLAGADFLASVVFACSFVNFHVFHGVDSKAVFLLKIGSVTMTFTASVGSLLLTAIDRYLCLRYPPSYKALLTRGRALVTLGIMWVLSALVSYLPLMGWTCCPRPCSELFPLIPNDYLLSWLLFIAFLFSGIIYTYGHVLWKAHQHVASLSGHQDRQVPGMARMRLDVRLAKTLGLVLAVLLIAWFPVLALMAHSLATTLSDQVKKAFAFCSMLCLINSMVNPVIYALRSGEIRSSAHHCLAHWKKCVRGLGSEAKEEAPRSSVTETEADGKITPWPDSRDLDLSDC

One test addresses WT hCB2 receptor (Homo sapiens, UniProt P34972). Put plainly: Competitive binding assay, WT hCB2.
In test [1] the target is hCB2 C6.47(257)S mutant receptor (Homo sapiens, UniProt P34972, C257S). Put plainly: Competitive binding assay, hCB2 C6.47.
Test [2] deals with hCB2 C6.47(257)A mutant receptor (Homo sapiens, UniProt P34972, C257A). Put plainly: Competitive binding assay, hCB2 C6.47.

Molecules are shown by their SMILES.

Take `CCCCC/C=C\C/C=C\C/C=C\C/C=C\CCCC(=O)NCCO` [AEA, anandamide, reference compound]: the figures for the Ki (on WT hCB2 receptor; in test [1]; in test [2]) were 209 nM, 366 nM and 211 nM, respectively.

One may read the Ki as the dissociation constant of the complex between target and ligand, obtained from inhibition or displacement. Low values mean tighter binding, high ones weaker binding.
